Data taken from patent publication US20240139185A1, “COMPOUNDS THAT PARTICIPATE IN COOPERATIVE BINDING AND USES THEREOF” (Revolution Medicines, Inc., priority 2018, published 2024).

Experiments:
cyclophilin A (CYPA) = cyclophilin A (CYPA) (Homo sapiens, UniProt P62937); assay: CYPA-compound binary complex formation by SPR; conditions: read-out: CYPA Binding Affinity
Method in brief: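 CypA-Avi captured on a Biotin CAPture chip (4 μg/ml), reference flow cell subtracted. Compounds injected as 10-point 2-fold dilutions from 50 μM in HBS-P+ pH7.4 with 2% DMSO; 60 s association and 60 s dissociation, solvent-corrected. Affinity obtained by steady-state fitting.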

[1] = molecular target: BRAF-GTP-KRAS-G12C complex (Homo sapiens, UniProt P01116+P62937, G12C); assay: KRAS-BRAF complex disruption through competition with CYPA-compound by TR-FRET; conditions: read-out: BRAF-GTP-KRAS-G12C Disruption; biochemical BRAF-KRAS G12C-GTP disruption assay EC50, with CYPA
Method in brief: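 His6-KRAS G12C-GTP (1-169, 50 nM) with tagless CypA (1-165, 500 nM) was incubated with compound for 3 h at room temperature in pH 7.3 Hepes/NaCl/MgCl2 buffer containing GST-BRAF RBD. Anti-His Eu (10 nM) and anti-GST APC (50 nM) were then added for 1.5 h, and the 665/615 nm TR-FRET ratio was read. EC50 from 4-parameter fit; for specificity, wild-type KRAS replaced G12C, and CypA was omitted to test presenter dependence.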

pERK in H358 cells = assay: pERK inhibition in H358 cells; conditions: read-out: Cellular pERK inhibition, 4 hours treatment
Method in brief: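 Human lung cancer H358 cells in RPMI/10% FBS were exposed to compound or DMSO for 4 h. Fixed and permeabilized cells were stained overnight at 4 C with anti-phospho-ERK1/2 (Thr202/Tyr204). Near-infrared imaging read the pERK signal at 800 nm, with DRAQ5 at 700 nm.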

Row | Kd (cyclophilin A (CYPA)) | EC50 [1] | IC50 (pERK in H358 cells) | Structure (SMILES)
1 | 5 to 15 µM | < 0.5 µM | 1 to 10 µM | CC(C)[C@@H](C(=O)N[C@H]1Cc2cc(O)cc(c2)-c2ccc3c(C4(C#N)CCOCC4)cn(c3c2)C[C@H](C)COC(=O)[C@@H]2CCCN(N2)C1=O)N(C)C(=O)C1CN(C(=O)CCl)C1
2 | > 15 µM | < 0.5 µM | < 1 µM | CC(C)[C@@H](C(=O)N[C@H]1Cc2cc(O)cc(c2)-c2ccc3c(C(C)(C#N)C4CCCC4)cn(c3c2)CC(C)(C)COC(=O)[C@@H]2CCCN(N2)C1=O)N(C)C(=O)C1CN(C(=O)CCl)C1 (stereo partly drawn)
3 | 5 to 15 µM | 0.5 to 5 µM | > 10 µM | C=CC(=O)N1CC2(C(=O)N(C)[C@H](C(=O)N[C@H]3Cc4cc(O)cc(c4)-c4ccc5c(C(C)(C)C#N)cn(c5c4)CC(C)(C)COC(=O)[C@@H]4CCCN(N4)C3=O)C(C)C)CC1C2
4 | 5 to 15 µM | 0.5 to 5 µM | 1 to 10 µM | C=CC(=O)N1CC[C@H](C(=O)N(C)[C@H](C(=O)N[C@H]2Cc3cc(O)cc(c3)-c3ccc4c(-c5ccc(Cl)cc5C#N)cn(c4c3)CC(C)(C)COC(=O)[C@@H]3CCCN(N3)C2=O)C(C)C)C1
5 | > 15 µM | > 5 µM | > 10 µM | CC(Cl)C(=O)N1CC2(CCN([C@H](C(=O)N[C@H]3Cc4cc(O)cc(c4)-c4ccc5c(C(C)(C)C#N)cn(c5c4)CC(C)(C)COC(=O)[C@@H]4CCCN(N4)C3=O)C(C)C)C2=O)C1 (stereo partly drawn)
6 | < 5 µM | > 5 µM | > 10 µM | C=CC(=O)N1CC[C@H](C(=O)N(C)[C@H](C(=O)N[C@H]2Cc3cc(O)cc(c3)-c3ccc4c(-c5cccc(CN6CCS(=O)(=O)CC6)c5)cn(c4c3)CC(C)(C)COC(=O)[C@@H]3CCCN(N3)C2=O)C(C)C)C1
7 | 5 to 15 µM | < 0.5 µM | 1 to 10 µM | CC(C)[C@@H](C(=O)N[C@H]1Cc2cc(O)cc(c2)-c2ccc3c(N4CCCC4=O)cn(c3c2)CC(C)(C)COC(=O)[C@@H]2CCCN(N2)C1=O)N(C)C(=O)C1CN(C(=O)CCl)C1
8 | < 5 µM | < 0.5 µM | 1 to 10 µM | CC(C)[C@@H](C(=O)N[C@H]1Cc2cc(O)cc(c2)-c2ccc3c(C(C)(C)C(C)O)cn(c3c2)C[C@H](C)COC(=O)[C@@H]2CCCN(N2)C1=O)N(C)C(=O)C1CN(C(=O)CCl)C1 (stereo partly drawn)
9 | 5 to 15 µM | < 0.5 µM | 1 to 10 µM | CC#Cc1nn2c3cc(ccc13)-c1cc(O)cc(c1)C[C@H](NC(=O)[C@H](C(C)C)N(C)C(=O)C1CN(C(=O)CCl)C1)C(=O)N1CCC[C@H](N1)C(=O)OC[C@@H](C)C2
10 | 5 to 15 µM | < 0.5 µM | > 10 µM | CC(C)[C@@H](C(=O)N[C@H]1Cc2cc(O)cc(c2)-c2ccc3c(c2)n(c(=O)n3CC(F)F)C[C@H](C)COC(=O)[C@@H]2CCCN(N2)C1=O)N(C)C(=O)C1CN(C(=O)CCl)C1
11 | 5 to 15 µM | 0.5 to 5 µM | > 10 µM | CC(C)[C@@H](C(=O)N[C@H]1Cc2cc(O)cc(c2)-c2ccc3c(C(C)(C)C#N)cn(c3c2)CC(F)COC(=O)[C@@H]2CCCN(N2)C1=O)N(C)C(=O)C1CN(C(=O)CCl)C1 (single isomer, unassigned)
12 | < 5 µM | < 0.5 µM | > 10 µM | CC(C)[C@@H](C(=O)N[C@H]1Cc2cc(O)cc(c2)-c2ccc3c(c2)n(c(=O)n3-c2ccncc2)C[C@H](C)COC(=O)[C@@H]2CCCN(N2)C1=O)N(C)C(=O)C1CN(C(=O)CCl)C1
13 | 5 to 15 µM | < 0.5 µM | 1 to 10 µM | CC(=O)C(C)(C)c1cn2c3cc(ccc13)-c1cc(O)cc(c1)C[C@H](NC(=O)[C@H](C(C)C)N(C)C(=O)C1CN(C(=O)CCl)C1)C(=O)N1CCC[C@H](N1)C(=O)OC[C@@H](C)C2
14 | > 15 µM | < 0.5 µM | 1 to 10 µM | COc1cccc(-c2cn3c4cc(ccc24)-c2cc(O)cc(c2)C[C@H](NC(=O)[C@H](C(C)C)N(C)C(=O)C2CN(C(=O)CCl)C2)C(=O)N2CCC[C@H](N2)C(=O)OCC(C)C3)c1 (stereo partly drawn)
15 | > 15 µM | > 5 µM | > 10 µM | C[C@@H](Cl)C(=O)N1CC(C(=O)N(C)[C@H](C(=O)N[C@H]2Cc3cc(O)cc(c3)-c3ccc4c(C(C)(C)C#N)cn(c4c3)CC(C)(C)COC(=O)[C@@H]3CCCN(N3)C2=O)C2CCOCC2)C1
16 | > 15 µM | > 5 µM | > 10 µM | C=CC(=O)N1CC[C@H](C(=O)N(C)[C@H](C(=O)N[C@H]2Cc3cc(O)cc(c3)-c3ccc4nc(C)n(c4c3)CC(C)(C)COC(=O)[C@@H]3CCCN(N3)C2=O)C(C)C)C1
17 | < 5 µM | < 0.5 µM | 1 to 10 µM | CC(C)[C@@H](C(=O)N[C@H]1Cc2cc(O)cc(c2)-c2ccc3c(-c4ccccc4C#N)c(C#N)n(c3c2)CC(C)(C)COC(=O)[C@@H]2CCCN(N2)C1=O)N(C)C(=O)C1CN(C(=O)[C@@H](C)Cl)C1

Row | Kd (cyclophilin A (CYPA)) | EC50 [1] | IC50 (pERK in H358 cells) | Structure (SMILES)
18 | 5 to 15 µM | < 0.5 µM | 1 to 10 µM | COc1ccc(C#N)c(-c2cn3c4cc(ccc24)-c2cc(O)cc(c2)C[C@H](NC(=O)[C@H](C(C)C)N(C)C(=O)C2CN(C(=O)CCl)C2)C(=O)N2CCC[C@H](N2)C(=O)OCC(C)(C)C3)c1
19 | < 5 µM | 0.5 to 5 µM | > 10 µM | C=CC(=O)N1CCN([C@H](C(=O)N[C@H]2Cc3cc(O)cc(c3)-c3ccc4ncn(c4c3)CCCOC(=O)[C@@H]3CCCN(N3)C2=O)C(C)C)C1=O
20 | 5 to 15 µM | 0.5 to 5 µM | 1 to 10 µM | CC(C)[C@@H](C(=O)N[C@H]1Cc2cc(O)cc(c2)-c2ccc3c(C(C)(C)C#N)cn(c3c2)CC(C)(C)COC(=O)[C@@H]2CCCN(N2)C1=O)N(C)C(=O)C1CN(C(=O)[C@@H](C)Cl)C1
21 | > 15 µM | 0.5 to 5 µM | > 10 µM | CN(C(=O)C1CN(C(=O)CCl)C1)[C@@H](CC1CCC1)C(=O)N[C@H]1Cc2cc(O)cc(c2)-c2ccc3c(C(C)(C)C#N)cn(c3c2)CC(C)(C)COC(=O)[C@@H]2CCCN(N2)C1=O
22 | > 15 µM | < 0.5 µM | 1 to 10 µM | COCc1nn2c3cc(ccc13)-c1cc(O)cc(c1)C[C@H](NC(=O)[C@H](C(C)C)N(C)C(=O)C1CN(C(=O)CCl)C1)C(=O)N1CCC[C@H](N1)C(=O)OC[C@@H](C)C2
23 | 5 to 15 µM | > 5 µM | > 10 µM | CC(C)[C@@H](C(=O)N[C@H]1Cc2cc(O)cc(c2)-c2ccc3c(-c4cccc5ncsc45)cn(c3c2)CC(C)(C)COC(=O)[C@@H]2CCCN(N2)C1=O)N(C)C(=O)C1CN(C(=O)[C@@H](C)Cl)C1
24 | < 5 µM | > 5 µM | > 10 µM | C=CC(=O)N[C@@H]1CCN([C@H](C(=O)N[C@H]2Cc3cc(O)cc(c3)-c3ccc4c(C(C)(C)C#N)cn(c4c3)C[C@H](C)COC(=O)[C@@H]3CCCN(N3)C2=O)C(C)C)C1=O
25 | < 5 µM | > 5 µM | > 10 µM | CC#CC(=O)N1CCC[C@H]1C(=O)N(C)[C@H](C(=O)N[C@H]1Cc2cc(O)cc(c2)-c2ccc3c(C(F)F)nn(c3c2)C[C@H](C)COC(=O)[C@@H]2CCCN(N2)C1=O)C(C)C
26 | 5 to 15 µM | 0.5 to 5 µM | 1 to 10 µM | C=CC(=O)N1CC[C@H](C(=O)N(C)[C@H](C(=O)N[C@H]2Cc3cc(O)cc(c3)-c3ccc4c(C(C)(C#N)CC5CCOCC5)cn(c4c3)CC(C)(C)COC(=O)[C@@H]3CCCN(N3)C2=O)C(C)C)C1 (single isomer, unassigned) [362]
27 | > 15 µM | < 0.5 µM | 1 to 10 µM | CC(C)[C@@H](C(=O)N[C@H]1Cc2cc(O)cc(c2)-c2ccc3c(C(C)(C)C#N)cn(c3c2)CC(Cc2ccccc2)COC(=O)[C@@H]2CCCN(N2)C1=O)N(C)C(=O)C1CN(C(=O)CCl)C1 (stereo partly drawn)
28 | > 15 µM | > 5 µM | > 10 µM | COc1ccc(C[C@H](NC(=O)C2CN(C(=O)CCl)C2)C(=O)N[C@H]2Cc3cc(O)cc(c3)-c3ccc4c(C#N)cn(c4c3)CC(C)(C)COC(=O)[C@@H]3CCCN(N3)C2=O)cc1
29 | 5 to 15 µM | < 0.5 µM | < 1 µM | CC(C)[C@@H](C(=O)N[C@H]1Cc2cc(O)cc(c2)-c2ccc3c(-c4c(Cl)cccc4C#N)cn(c3c2)CC(C)(C)COC(=O)[C@@H]2CCCN(N2)C1=O)N(C)C(=O)C1CN(C(=O)CCl)C1
30 | > 15 µM | > 5 µM | > 10 µM | CC#CC(=O)N1CC[C@@H](C(=O)N(C)[C@H](C(=O)N[C@H]2Cc3cc(O)cc(c3)-c3ccc4nc(C)n(c4c3)CC(C)(C)COC(=O)[C@@H]3CCCN(N3)C2=O)C(C)C)C1
31 | < 5 µM | 0.5 to 5 µM | > 10 µM | COC1COC(=O)[C@@H]2CCCN(N2)C(=O)[C@@H](NC(=O)[C@H](C(C)C)N(C)C(=O)C2CN(C(=O)CCl)C2)Cc2cc(O)cc(c2)-c2ccc3nc(C)n(c3c2)C1 (stereo partly drawn)
32 | > 15 µM | > 5 µM | > 10 µM | C=CC(=O)N1CC[C@H](C(=O)N(C)[C@H](C(=O)N[C@H]2Cc3cc(O)cc(c3)-c3ccc4c(C(C)(C)C#N)cn(c4c3)CC(C)(C)COC(=O)[C@@H]3CCCN(N3)C2=O)C(C)C)C1
33 | 5 to 15 µM | < 0.5 µM | 1 to 10 µM | CC(C)[C@@H](C(=O)N[C@H]1Cc2cc(O)cc(c2)-c2ccc3c4c(n(c3c2)C[C@H](C)COC(=O)[C@@H]2CCCN(N2)C1=O)COCC4(C)C#N)N(C)C(=O)C1CN(C(=O)CCl)C1 (single isomer, unassigned) [64]
